High-throughput results deposited in PubChem by Broad Institute.
PglD inh: C. jejuni PglD acetyltransferase inhibitors, primary screen, biochemical, DTNB colorimetric, single point. inhibition, % at 12.5 µM. UDP-N-acetylbacillosamine N-acetyltransferase PglD (Campylobacter jejuni). purified PglD enzyme, DTNB colorimetric CoA detection. 360,000 tested, 0.098% active; in the data active = inhibition above about 16%, passing the limit was not always enough
PGC1a acetyl inh: inhibitors of PGC1a acetylation signal, primary screen, cell-based, U2OS, AlphaScreen, inhibitor mode; AlphaScreen anti-acetyl-lysine; with virally co-expressed GCN5 acetyltransferase; inhibition, % at 15.6 µM; 350,000 tested, 0.17% active;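 active = every replicate shows inhibition of at least 40%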;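 also: 0% = neutral control wells and 100% = positive control wells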
Statin myotox sup: suppressors of statin myotoxicity in C2C12 myotubes, primary screen, cell-based, single point, plate reader | rescue of ATP level, % at 7.49 µM | 330,000 tested, 0.78% active | C2C12 myotubes + simvastatin, ATP luminescence, 48 h; scaled: DMSO 0, geranylgeraniol control 100;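 active = mean ATP rescue above about 67%, or every replicate alone reaching that limit, limit read from the data, passing the limit was not always enough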;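 also: myotubes were challenged with 10 µM simvastatin during compound exposure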
E-selectin induc: E-selectin induction in HUVECs, primary screen, imaging, HUVEC, immunofluorescence imaging, single point; P16581; normalized: neutral wells 0, TNF-alpha wells 100; activation, % at 7.58 µM; 260,000 tested, 0.37% active;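 active = mean E-selectin-positive cell signal at least 10% of the positive control, reached in at least 60% of replicates, without over 20% cell loss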
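assay system = HUVEC, human umbilical vein endothelial cells | input = 3,000 HUVEC seeded per well | medium = EGM-2 growth medium on 0.1% gelatin-coated wells | dosing = one compound dose added by pin transfer | signal = immunofluorescence imaging | read-out basis = % PE-positive cells | control set = TNF-alpha, DMSO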
esBAF inh: Bmi1 luciferase reporter increase in mESCs, primary screen, esBAF inhibitor project, mouse ES cells, Bmi1 luciferase knock-in, single point. 350,000 tested, 2% active. reporter increase, % at 12.5 µM. 24 h; 100% = twice the neutral-well signal. AID 602393, 2012; in the data active = activation above about 40%;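 also: 0% = median of the plate's neutral control wells and 100% = double that signal; a rise in the Bmi1 reporter signal indicates esBAF inhibition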
UUG fidelity: alters start codon recognition fidelity in yeast | S. cerevisiae UUG-firefly luciferase reporter, luminescence/redox ratio | activity score, % at 18.7 µM | hit rate 0.13% among 350,000 | AID 602363;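 active means replicate mean at a twofold rise or more, about +100% in these data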;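 further: firefly luciferase made from a UUG start codon reports start codon fidelity; reporter light over untreated wells divided by growth signal over untreated wells; some hits fall short of that in this replicate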
* marks the source's active call; other numbers are inactive results; x = no result. Shown are actives, neighbours in structure and some others; about 2.8% of the full set was active somewhere.

#	molecule	PglD inh	PGC1a acetyl inh	Statin myotox sup
1	COc1ccc(NC(=O)c2cc(CC(C)C)on2)cc1OC	-3.9	-9.0	7.8
2	CCCc1cc(C(=O)Nc2ccc(C)cc2)no1	-5.2	4.8	4.9
3	C/C=C/c1ccc2c(c1)O[C@H](CN(C)CC1CCOCC1)[C@H](C)CN([C@H](C)CO)S2(=O)=O	0.3	-2.1	10.6
4	COc1ccc(S(=O)(=O)Nc2ccc3c(c2)C(=O)N([C@H](C)CO)C[C@@H](C)[C@@H](CN(C)Cc2ccc(C(=O)O)cc2)O3)cc1	6.4	-6.8	x
5	Nc1nc(C2CC2)c(Sc2sc(N)nc2C2CC2)s1	-0.1	-9.2	69.4*
6	Cc1ccc(-c2cc(=O)c3ccccc3[nH]2)cc1	-1.1	3.7	0.9
7	Clc1ccc(-c2cc3ccccc3[nH]2)cc1	3.3	-48.2	-17.0
8	COc1ccc(C[C@@H]2CCn3cc(nn3)COC[C@H](CC(C)C)NC2=O)cc1	x	x	x
9	CC(=O)c1ccc(Oc2ccc(C(C)=O)cc2)cc1	4.6	-10.6	21.5
10	CC(=O)c1ccc(OC(=O)Oc2ccc(C(C)=O)cc2)cc1	x	x	x
11	O=S(=O)(Nc1cccc(Oc2cnccn2)c1)c1ccc(F)cc1	5.8	2.6	0.5
12	Cc1cccc(OCCCCc2c(C)n[nH]c2C)c1C	-7.0	3.0	103.5*

#	E-selectin induc	esBAF inh	UUG fidelity
1	x	50.4*	3.0
2	x	73.2*	-7.5
3	-0.3	-1.3	-0.6
4	-0.1	-1.3	0.4
5	x	9.1	-25.0
6	-0.1	2.8	-8.4
7	x	81.0*	-15.5
8	-0.1	x	x
9	x	42.0*	-3.7
10	0.0	x	x
11	40.1*	2.2	-11.5
12	x	3.5	-15.0

Structures from the list above that have four or more nitrogen atoms (two):
#	molecule	PglD inh	PGC1a acetyl inh	Statin myotox sup
5	Nc1nc(C2CC2)c(Sc2sc(N)nc2C2CC2)s1	-0.1	-9.2	69.4*
8	COc1ccc(C[C@@H]2CCn3cc(nn3)COC[C@H](CC(C)C)NC2=O)cc1	x	x	x

#	E-selectin induc	esBAF inh	UUG fidelity
5	x	9.1	-25.0
8	-0.1	x	x

The results go on:
#	molecule	PglD inh	PGC1a acetyl inh	Statin myotox sup
13	CCC(=O)N(C)C[C@H]1Oc2cc(-c3ccncc3)ccc2S(=O)(=O)N([C@@H](C)CO)C[C@H]1C	-3.9	7.4	0.3
14	c1ccc(-c2nc3ccccc3[nH]2)cc1	-1.7	-0.3	4.2
15	Cc1ccc(-c2nc3ccccc3[nH]2)s1	4.0	2.1	-22.1
16	c1csc(-c2nc3ccccc3[nH]2)c1	0.0	3.2	15.2
17	CO[C@H](CN(C)CC1CCOCC1)[C@H](C)CN(C(=O)Nc1ccc(F)cc1)[C@@H](C)CO	1.6	7.0	-2.6
18	CCN(CC)C(=O)c1sc(N)c(C#N)c1C	5.2	-0.1	127.9*
19	CCOC(=O)C(=O)Nc1sc(C(=O)N(CC)CC)c(C)c1C#N	x	16.7	x
20	Cc1c(C(=O)/C=C/c2cccs2)oc2ccc(F)cc12	-1.7	11.1	36.5
21	O=C(Cc1ccccc1)N1CCC(c2ccccc2)C1 (configuration not stated)	x	x	14.6
22	O=C(NCc1ccccc1)[C@H]1N[C@H]2c3ccc(-c4ccccc4)c(=O)n3C[C@H]2[C@@H]1CO	-3.8	x	18.9
23	C[C@@H]1CCCCO[C@H](CN(C)C(=O)C2CCCCC2)[C@H](C)CN([C@H](C)CO)C(=O)c2cc(NC(=O)Nc3cccc4ccccc34)ccc2O1	2.0	-8.1	x
24	NS(=O)(=O)c1ccc(CNc2ccc3ccccc3n2)cc1	2.2	x	-8.1

#	E-selectin induc	esBAF inh	UUG fidelity
13	-0.1	-7.1	10.2
14	3.9	71.7*	-24.5
15	x	x	-6.0
16	x	45.9*	0.5
17	-0.1	-1.1	x
18	x	-6.4	-8.8
19	-0.1	x	x
20	x	63.3*	-12.9
21	0.2	46.3*	x
22	0.2	-6.5	1.5
23	0.3	-3.6	-9.0
24	0.0	51.5*	-10.8

Whole records from above:
`Cc1c(C(=O)/C=C/c2cccs2)oc2ccc(F)cc12` as listed: PglD inh = -1.7; PGC1a acetyl inh = 11.1; Statin myotox sup = 36.5; E-selectin induc = x; esBAF inh = 63.3*; UUG fidelity = -12.9
`CCN(CC)C(=O)c1sc(N)c(C#N)c1C` as listed: PglD inh = 5.2; PGC1a acetyl inh = -0.1; Statin myotox sup = 127.9*; E-selectin induc = x; esBAF inh = -6.4; UUG fidelity = -8.8

Additional results:
#	molecule	PglD inh	PGC1a acetyl inh	Statin myotox sup
25	CCCNC(=O)Nc1ccc2c(c1)C(=O)N(C)[C@@H]1CC[C@H](CC(=O)NCCCN(C)C)O[C@H]1CO2	2.8	5.5	-42.6
26	Cc1noc(C)c1S(=O)(=O)Nc1ccc2c(c1)C(=O)N([C@@H](C)CO)C[C@@H](C)[C@H](CN(C)Cc1ccc(Cl)c(Cl)c1)OCCCC[C@@H](C)O2	1.2	-19.9	120.8*
27	Cc1noc(C)c1S(=O)(=O)Nc1ccc2c(c1)C(=O)N([C@H](C)CO)C[C@H](C)[C@@H](CN(C)S(=O)(=O)c1ccc(Cl)cc1)OCCCC[C@H](C)O2	2.3	x	23.3
28	Cc1noc(C)c1S(=O)(=O)Nc1ccc2c(c1)C(=O)N([C@@H](C)CO)C[C@@H](C)[C@@H](CN(C)CC1CCCCC1)OCCCC[C@@H](C)O2	0.1	84.6*	-20.6
29	Cc1noc(C)c1S(=O)(=O)Nc1ccc2c(c1)C(=O)N([C@H](C)CO)C[C@@H](C)[C@@H](CN(C)S(=O)(=O)c1ccc(Cl)cc1)OCCCC[C@H](C)O2	-1.8	x	101.2*
30	COc1ccc(C(=O)c2ccc(Cl)cc2)cc1	-1.5	13.4	8.2
31	COc1ccc(C(=O)c2cn[nH]c2-c2cc(C)ccc2O)cc1	-3.4	x	11.9
32	COc1ccc(C(=O)c2cn[nH]c2-c2cc(Cl)ccc2O)cc1	0.1	2.7	144.1*
33	O=C(CNC(=O)c1ccc(Cl)cc1)c1ccc(Cl)cc1	-3.2	-0.9	3.4
34	O=C(CNC(=O)c1ccc(F)cc1)c1ccc(Cl)cc1	0.5	x	3.9
35	Cc1noc(C)c1NC(=O)Nc1ccc2c(c1)C(=O)N([C@@H](C)CO)C[C@@H](C)[C@@H](CN(C)S(=O)(=O)c1ccc(Cl)cc1)O2	7.7	5.5	-10.9
36	CCCC(=O)Nc1ccc2c(c1)C(=O)N(C)C[C@H](OC)[C@H](C)CN(Cc1ccccc1)[C@@H](C)CO2	1.8	-2.5	5.4

#	E-selectin induc	esBAF inh	UUG fidelity
25	0.3	11.2	-12.9
26	-0.1	-0.2	18.1
27	x	-3.8	-10.5
28	x	11.0	8.7
29	x	13.1	-4.1
30	x	45.8*	-17.7
31	0.5	-3.4	-13.5
32	x	-3.2	-4.7
33	0.0	33.9	-5.1
34	x	53.1*	-14.4
35	11.7	-5.4	-3.6
36	-0.1	2.9	2.2

Later entries:
#	molecule	PglD inh	PGC1a acetyl inh	Statin myotox sup
37	O=C1C2C3C=CC(C3)C2C(=O)N1c1ccncc1 (configuration not stated)	-5.5	8.7	1.5
38	Cc1ccnc2c(N3C(=O)C4C5C=CC(C5)C4C3=O)cccc12 (configuration not stated)	-3.5	-2.5	121.3*
39	Cc1ccc(NC(=O)c2ccncc2)cc1S(=O)(=O)N(C)C	0.7	x	x
40	Cc1ccc(C(=O)Nc2ccc3c(c2)CCC3)o1	-3.8	-8.4	-8.1
41	O=C(Nc1ccc2c(c1)CCC2)c1ccc(Br)o1	5.6	2.9	21.0
42	Cc1ccc(NC(=O)c2ccc(Br)o2)cc1S(=O)(=O)N(C)C	x	0.6	-8.9
43	O=C(Nc1ccc2c(c1)oc1ccccc12)c1ccc(Br)o1	-0.6	28.6	-35.3
44	CCOC(=O)/C(=N\Nc1ccccc1)S(=O)(=O)c1ccccc1	0.7	-2.7	27.0
45	CCOC(=O)/C(=N/Nc1ccc(C)cc1)S(=O)(=O)c1ccc(Cl)cc1	2.6	-33.8	1.1
46	O=C(CSc1nnc(-c2cccc(F)c2)o1)N1CCCC1	0.7	-10.7	3.4

#	E-selectin induc	esBAF inh	UUG fidelity
37	x	10.2	-11.6
38	x	3.4	1.0
39	x	x	-16.2
40	x	14.3	-14.4
41	x	47.4*	-3.5
42	-0.3	55.4*	x
43	x	83.0*	-28.2
44	x	6.6	-12.8
45	x	54.1*	-1.8
46	0.0	44.0*	-17.2
